The values below come from PubChem BioAssay AID932 (The Scripps Research Institute Molecular Screening Center, 2007).

SMILES strings stand for the structures. This is a selection; strong and weak results do not stand in their true shares. Some results for these compounds are left out of this collection, so the calls shown say nothing about other tests. Calls of active or inactive are those of the source.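 The calls were made as follows: active = activation above the screen-wide mean activation plus 3 SD (cut at about 130% in these data); inactive = the rest.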

The experiment is described as follows: STAT1 signaling activators, primary screen, cell-based, HTS, luciferase reporter (AID 932).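 Also: raw ratio to IFN-gamma control signal so 100% means no change and 0% no light.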 As to conditions: NIH 3T3 STAT1-luciferase reporter, IFN-gamma, luminescence; at 5.5 µM; stronger effect = higher value; 100% = IFN-gamma alone, no compound. A general note: A reporter such as luciferase makes a cellular process visible.
In the case of `CN(C)C1CCCC1OC(=O)C(O)(c1ccccc1)c1ccccc1` (centres undefined), the activation (% of control) was inactive: 96.4%.

In the case of `Cc1ccccc1C(=O)NCC1(N2CCCCC2)CCCCC1`, the activation (% of control) was inactive: 99.2%.

Consider `C=CCN1CCN(CCOC(=O)C(O)(c2ccccc2)c2ccccc2)CC1`, for which the activation (% of control) was inactive: 96.8%.

With `CCN1CCCC(OC(=O)C2(O)c3ccccc3C=Cc3ccccc32)C1` (centres undefined), the activation (% of control) was inactive: 104%.

For `O=C(NCC1(N2CCCCC2)CCCCC1)c1cc([N+](=O)[O-])ccc1Cl`, the activation (% of control) was inactive: 94.3%.

Regarding `CC(C)N1C(=O)CC2(CCN(CCOC(=O)C(O)(c3ccccc3)c3ccccc3)CC2)C1=O`, the activation (% of control) was inactive: 99.4%.

As for `O=C(OC1CN2CCC1CC2)C(CO)(c1ccccc1)c1ccccc1` (centres undefined), the activation (% of control) is inactive: 105%.

`CN(C)c1cccc(C(=O)NCC2(N(C)C)CCCCC2)c1`: the activation (% of control) is inactive: 101%.

On to `COc1cccc(C(=O)NCC2(N3CCCCC3)CCCCC2)c1`, for which the activation (% of control) is inactive: 99.2%.
